# This is one part of the list.
# Tested on: A. baumannii ATCC 17978
# Experiment: relative growth (fraction of control); higher = less inhibition
# Settings: 50 µM
row,SMILES,relative growth
1,CC(C)NC(=O)NCC[C@@H]1CC[C@H](NC(=O)CN(C)C)[C@@H](CO)O1,1.1
2,COc1ccc(S(=O)(=O)N(C)C[C@@H]2OCc3cnnn3CCCC(=O)N([C@H](C)CO)C[C@H]2C)cc1,1.15
3,COc1ccccc1CNC(=O)C[C@@H]1C[C@@H]2c3cc(NC(=O)Cc4ccncc4)ccc3O[C@@H]2[C@@H](CO)O1,1.08
4,CO[C@@H]1CN(C)C(=O)c2cc(NC(=O)c3ccccc3)ccc2OC[C@H](C)N(C(=O)CN(C)C)C[C@H]1C,1.01
5,CC1CCCC(C)N1 (centres undefined),1.04
6,COCC#Cc1ccc2c(c1)O[C@@H](CN(C)Cc1ccc(F)cc1)[C@H](C)CN([C@@H](C)CO)S2(=O)=O,1.47
7,COc1cc(CCC(=O)O)oc(=O)c1,0.938
8,O=C(O)[C@@H]1CCCCN1,1.02
9,CC(C)(C)C(=O)C[n+]1ccc(C(N)=O)cc1,0.987
10,CCOC(=O)OC[C@@H]1[C@@H]2NC(=O)N(C)[C@@]1(COC(=O)NCCCCCC(=O)NO)Oc1ccccc12,0.981
11,O=C(C[C@@H]1C=C[C@H](NS(=O)(=O)c2ccc(F)cc2)[C@@H](CO)O1)N1CCC(Cc2ccccc2)CC1,0.943
12,C=C(c1ccc(C(=O)O)cc1)c1cc2c(cc1C)C(C)(C)CCC2(C)C,1.41
13,CCOC(=O)[N-]c1c[n+](N2CCOCC2)no1,0.895
14,CC(C)=CCCC(C)C1CC[C@@]2(C)C3=C(CC[C@]12C)C1(C)CC[C@H](O)C(C)(C)C1CC3 (some centres undefined),0.805
15,Cc1o[nH]c(=O)c1CC[C@@H](N)C(=O)O,0.978
16,CC[N+](CC)(CC)CCOc1cccc(OCC[N+](CC)(CC)CC)c1OCC[N+](CC)(CC)CC,0.963
17,Cc1cc(-c2ccccc2)nc(SCc2ccccc2)c1C#N,1.1
18,COc1cc2c(=O)c(-c3ccc4c(c3)OCO4)coc2c2c1OC(C)(C)C=C2,1.22
19,CO[C@H]1CN(C)C(=O)c2ccc(NC(=O)c3ccccc3)cc2OC[C@@H](C)N(C(=O)CN(C)C)C[C@@H]1C,1.07
20,COC1=C(CC=C(C)C)C(=O)c2ccccc2C1=O,0.843

row,SMILES,relative growth
1,COc1ccc2c(c1)O[C@@H]1COc3cc(OC)c(OC)cc3[C@@H]1C2=O,0.945
2,CC[C@@](N)(C(=O)O)c1ccccc1,0.903
3,O=C1CO[C@@H](c2ccccc2)CN1,0.981
4,COc1ccc(S(=O)(=O)N2C[C@@H](O)COC[C@@H]3O[C@@H](CC(=O)NCCN4CCCCC4)CC[C@H]32)cc1,0.914
5,CCn1c2ccc(Cl)cc2c2cc(Cl)ccc21,1.05
6,O=C(C[C@@H]1CC[C@@H](NC(=O)Cc2ccccn2)[C@H](CO)O1)NCCc1ccncc1,1.07
7,CN1C(CC(=O)c2ccccc2)CCCC1CC(O)c1ccccc1.Cl (centres undefined),0.958
8,NCc1ccc(S(N)(=O)=O)cc1,0.983
9,O=C(C1=C[C@@H](c2csc3ccccc23)C[C@@H](OCc2ccc(CO)cc2)O1)N1CCN(Cc2ccc3c(c2)OCO3)CC1,1.13
10,CCc1oc2ccccc2c1C(=O)c1cc(Br)c(O)c(Br)c1,0.908
11,NCCCn1c2c(c3ccccc31)CCCC2,0.695
12,COc1cccc(NC(=O)N[C@@H]2C=C[C@H](CC(=O)N3CCN(C)CC3)O[C@H]2CO)c1,1.05
13,CCOP(=O)(CC(=O)O[C@H]1[C@H](OC(=O)Nc2ccccc2-c2ccccc2)[C@H](OC(=O)Nc2ccccc2-c2ccccc2)[C@@H](OC)O[C@@H]1COC(=O)NCCCCCC(=O)NO)OCC,0.749
14,Cn1cnc(S(=O)(=O)N2C[C@@H](O)COC[C@@H]3O[C@@H](CC(=O)NC4Cc5ccccc5C4)CC[C@H]32)c1,0.986
15,Nc1nc(Cl)nc(Cl)n1,1.03
16,C[C@@H](O)C#Cc1ccc2c(c1)O[C@H](CN(C)C(=O)Nc1ccccc1)[C@@H](C)CN([C@@H](C)CO)S2(=O)=O,0.921
17,Nc1ncnc2c1ncn2[C@H]1CCCO1,0.932
18,CC(=O)Nc1ccc(C(=O)O)cc1,1.07
19,COc1ccccc1NC(=O)N(C)C[C@H]1Oc2ncc(Br)cc2C(=O)N([C@@H](C)CO)C[C@H]1C,0.976
20,CSc1ccc2c(c1)N(CCC1CCCCN1C)c1ccccc1S2.Cl (centres undefined),0.901

row,SMILES,relative growth
1,CNC(=O)C(=O)NC[C@H]1OCCN1S(=O)(=O)c1ccccc1,0.882
2,COc1ccc(S(=O)(=O)N[C@H]2CC[C@H](CC(=O)N3CCN(c4ccccc4)CC3)O[C@H]2CO)cc1,0.866
3,O=C(C[C@@H]1C=C[C@@H](NC(=O)Nc2cc(F)ccc2F)[C@@H](CO)O1)NCCCN1CCOCC1,0.94
4,CC[C@H]1CN(C(=O)c2cnccn2)N1C,1
5,CC1(C)N=C(N)N=C(N)N1c1ccccc1,0.975
6,CC[C@@H]([C@H](C)O)n1ncn(-c2ccc(N3CCN(c4ccc(OC[C@@H]5CO[C@@](Cn6cncn6)(c6ccc(F)cc6F)C5)cc4)CC3)cc2)c1=O,0.931
7,CN(C)[C@@H]1C(O)=C(C(N)=O)C(=O)[C@@]2(O)C(O)=C3C(=O)c4c(O)cccc4[C@@](C)(O)[C@H]3C[C@@H]12.Cl,0.171
8,O=C(O)c1ccccc1,0.966
9,CCC(C)C(=O)O[C@H]1C[C@H](O)C=C2C=C[C@H](C)[C@H](CC[C@@H](O)C[C@@H](O)CC(=O)[O-])C21.[Na+] (some centres undefined),0.906
10,O=C(C[C@@H]1CC[C@H](NC(=O)CN2CCOCC2)[C@H](CO)O1)NCCc1ccccc1,1.18
11,COc1cccc(NC(=O)N2C[C@@H](O)COC[C@@H]3O[C@@H](CC(=O)NC4Cc5ccccc5C4)CC[C@H]32)c1,1.11
12,Brc1ccc(-c2cc3n(c2)CCc2ccccc2-3)cc1,1.15
13,CN1C(=O)/C(=C(/C#N)C(N)=O)c2ccccc21,0.915
14,CCOc1ccc(NC(C)=O)cc1,1.06
15,CNC(=O)C[C@@H]1CC[C@@H]2[C@H](COC[C@@H](O)CN2C(=O)c2ccccn2)O1,0.965
16,CCOC(=O)/C(C)=N/NC(C)=O,0.879
17,CO[C@H]1CN(C)C(=O)c2ccc(NC(=O)Nc3cccc(F)c3)cc2OC[C@H](C)N(C(=O)Nc2c(C)noc2C)C[C@H]1C,1.02
18,C[C@H]1CCC2=C(CCC[C@@]2(C)C(=O)O)[C@@]1(C)CCc1ccoc1,0.947
19,CCCC[C@@H](CC)COC(=O)C(C#N)=C(c1ccccc1)c1ccccc1,1.34
